Broadly, the koff is the first-order rate constant of dissociation. A word on the IC50: it is the concentration that gives 50% inhibition.

Assay [1] addresses T1, SHP2 (Avi-G4SG4S-PTPN11(1-525)) (Homo sapiens, UniProt Q06124).
T1 construct: (Avi-G4SG4S-PTPN11(1-525)); purchased Viva Biotech Ltd
The experiment in a line: Binding kinetic assay by surface plasmon resonance (SPR). The following applies: Biacore T200, single cycle kinetic, 1:1 Langmuir binding model; for koff: triplicate. How it is done: A binding assay for measuring SHP2 inhibitors binding kinetic was developed using a Biacore T200 Instrument (Cytiva, Sweden). […] Data analysis was performed by Biacore T200 Evaluation software (Cytiva), and kinetic parameters were evaluated by a global fitting according to a 1:1 Langmuir binding model. Each molecule was tested in triplicate on separate flow channels.
(In SPR one partner is held on a chip, and binding of the other changes the refractive index at the surface.)

The target in assay [2] is T2, SHP-2 enzyme (Met1-Leu525) (Homo sapiens, UniProt Q06124).
T2 construct: synthetized by Origene, Met1-Leu525, cat #TP750155; purchased Origene TP750155
The experiment in a line: SHP2 inhibition enzymatic assay (DiFMUP substrate, IRS1 peptide activation). It is filed as biochemical. The following applies: 0.5 nM SHP-2, 500 nM IRS1 peptide, 75 μM DiFMUP; read-out: SHP2wt - IC50. As to the method:
The assay was performed as described in YP Chen et al, Nature (535)2016. Assay volume of 20 μL/well was assembled in 384 well black polystyrene low-binding microplates (Greiner), using the following buffer: 60 mM HEPES pH 7.2, 75 mM NaCl, 75 mM KCl, 1 mM EDTA pH 8, 0.05% tween-20, 5 mM DTT. The SHP-2 enzyme (synthetized by Origene, Met1-Leu525, cat #TP750155) was used at a final concentration of 0.5 nM. The enzyme was activated by 500 nM IRS1 peptide (sequence: H2N-LN(pY)IDLDLV(dPEG8)LST(pY)ASINFQK-amide SEQ ID No. 1) and incubated with 75 μM DiFMUP (Sigma) as substrate.
Briefly, DMSO serially diluted testing compounds were transferred to the bottom of the assay plate. SHP2 was then added together with the IRS1 peptide 30 min post incubation, the DiFMUP substrate was added to the reaction and incubated 30 min at rt. Finally 5 μL of 160 μM bpV (Potassium bisperoxo[1,10-phenanthroline]oxovanadate[V], Sigma) were added to stop and quench the reaction. The fluorescence was detected by a microplate reader (Envision, PerkinElmer) according to the DiFMUP excitation and emission wavelength. The lower the fluorescence the higher the SHP2 inhibition.
The activity of each compound dilution was calculated as percentage of inhibition between vehicle (DMSO, 0% inhibition) and no enzyme (100% inhibition). […]

With `Cc1cn2ccc(Sc3cnc(N4CCC5(CC4)Cn4nccc4[C@H]5N)cn3)c(Cl)c2n1` [Example 43, (S)-1-(5-((8-chloro-2-methylimidazo[1,2-a]pyridin-7-yl)thio)pyrazin-2-yl)-4′H,6′H-spiro[piperidine-4,5′-pyrrolo[1,2-b]pyrazol]-4′-amine], in assay [1], the “Residence time 1/koff SPR” value came out at 18149 s and the koff is 5.51e-05 s⁻¹. For the same compound, in assay [2], the IC50 was not above 50 nM.
As for `Nc1nc(N2CCC3(CC2)Cn2nccc2[C@H]3N)cnc1Sc1ccn2ccnc2c1Cl` [Example 44, (S)-1-(6-amino-5-((8-chloroimidazo[1,2-a]pyridin-7-yl)thio)pyrazin-2-yl)-4′H,6′H-spiro[piperidine-4,5′-pyrrolo[1,2-b]pyrazol]-4′-amine], in assay [1], the “Residence time 1/koff SPR” value stood at 15152 s and the koff came out at 6.6e-05 s⁻¹. In addition, the IC50 in assay [2] was not above 50 nM.

These data come from US20240239799A1, “(S)-1-(5-((PYRIDIN-3-YL)THIO)PYRAZIN-2-YL)-4'H,6'H-SPIRO[PIPERIDINE-4,5'-PYRROLO [1,2-B]PYRAZOL]-4'-AMINE DERIVATIVES AND SIMILAR COMPOUNDS AS SHP2 INHIBITORS FOR THE TREATMENT OF E.G. CANCER” (C.N.C.C.S. S.C.A.R.L. COLLEZIONE NAZIONALE DEI COMPOSTI …, priority 2021, published 2024).
